## scFv variants of Ab-91 (heavy chain) against a SARS-CoV-2 spike peptide

Source: Engelhart et al. 2022 (doi:10.1038/s41597-022-01779-4), MIT Lincoln Laboratory and A-Alpha Bio; data file from the FLAb repository.

Antigen: PDVDLGDISGINAS, a 14-residue peptide of the SARS-CoV-2 spike HR2 region.

Parent: Ab-91, a human scFv built as VL, a (GGGGS)3 linker, VH. Only the CDRs of the heavy chain vary.
VL: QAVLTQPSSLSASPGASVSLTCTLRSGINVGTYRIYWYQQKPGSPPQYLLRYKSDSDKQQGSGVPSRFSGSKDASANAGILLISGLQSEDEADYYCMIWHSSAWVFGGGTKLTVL
VH: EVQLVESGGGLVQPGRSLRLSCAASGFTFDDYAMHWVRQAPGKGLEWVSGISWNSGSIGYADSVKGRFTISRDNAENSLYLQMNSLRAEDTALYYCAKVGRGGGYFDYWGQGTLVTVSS

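Phage display of a naive human antibody library on the peptide gave the parent. The library (AAYL51) carries one to three amino acid substitutions per variant, with no insertions or deletions. Affinity was read by AlphaSeq, a pooled yeast mating assay with surface-displayed partners. Pairs that bind mate more often; barcode pairs of the diploids are counted by sequencing. Scores were corrected for input abundance and mapped to Kd with protein pairs of known affinity run in the same pool. There are three technical replicates.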

The parent's heavy chain CDRs are GFTFDDYAMH, GISWNSGSIGYADSVK, VGRGGGYFDY; each variant's own CDRs replace them letter for letter.
Values are log10 of the apparent Kd in nM; lower means stronger binding.
"nd" marks a missing value. The strain was present, yet no cells mated with the target were sequenced in that replicate, which points to weak or no binding.

CDR-H1,CDR-H2,CDR-H3,log10 Kd (nM) by replicate,control signals
GFTFDDYAMH,GISANSGSIGYADSVK,WGRVGGYFDY,nd / 3.89 / nd,0/9
GFTFDDYAMH,GISTNSGSIGYAESVK,CGRGGGYFDY,nd / nd / nd,0/9
GFTFDYYADH,GISWNSGSIGYADSVK,VGRGGGYFDY,nd / 5.47 / nd,2/9 (4.66)
AFTFDDMAMH,GISWNSGSIGCADSVK,VGRGGGYFDY,5.18 / 4.94 / nd,7/9 (5.74)
GFTFWDYAMH,GISWNSGWHGYADSVK,VGRGGGYFDY,nd / nd / nd,0/9
GFTFDDYAMH,GISWNSGSIGYADSVK,VGRGMGPFGY,nd / nd / nd,2/9 (5.56)
GFTFPDYAMH,GISWNSGSIGYADSVK,VGRGGGGFDY,3.74 / 4.48 / nd,1/9 (6.26)
GFTFDDFAMH,GISWNSGSIGYADSVG,VGRMGGYFDY,nd / nd / nd,0/9
GFTFDDYADH,GLSWNSGSIGYADWVK,VGRGGGYFDY,nd / nd / nd,2/9 (4.32)
GFTFDDYAMH,GISWNKGDIGYADSVK,VGRGGIYFDY,1.53 / 1.42 / 0.90,5/9 (5.10)
GFTFDDYAMH,GISWNSGSVGYADSVA,VGRGFGYFDY,3.79 / nd / nd,1/9 (3.14)
GNTFDDYAMH,GISWNSGNIGYADSVW,VGRGGGYFDY,nd / nd / nd,0/9
GFTFDDYAMM,GFSWNSGSIAYADSVK,VGRGGGYFDY,nd / nd / nd,0/9
GFTFDDYEMH,GISWNSGSIGYAVSVK,VGRGGFYFDY,4.64 / 5.45 / 5.15,6/9 (4.47)
GRQFDDYAMH,GISWNSGSIGYADSVK,VGRGGGYIDY,nd / nd / nd,0/9
YFLFDDYAMH,GISWNSGSIGYADSVK,VGRGGGYFDY,4.63 / nd / nd,3/9 (4.41)
GFTLDDYAMH,GISWNSGSIGYADSVK,TGRWGGYFDY,2.50 / 2.69 / 2.00,2/9 (4.25)
GFTFDDYAMI,GISWNSGSIGYADSVK,HGRGGGYFDY,nd / nd / nd,0/9
GCTFDDYAMH,GISWNYGSIGYADSVK,VGRGGGLFDY,3.65 / 4.71 / nd,0/9
GFTFDDYAMH,GISWASGSAGYADSVK,VHRGGGYFDY,nd / 6.44 / nd,3/9 (5.46)
GFTFDDYAMH,FSSWNSGIIGYADSVK,VGRGGGYFDY,3.88 / nd / nd,7/9 (4.30)
GFTFDDYAMH,GISWNRGSIGYADSVK,VGRMGGYFDY,5.61 / 3.75 / nd,4/9 (4.94)
GFTFDDFAMH,GISINSGSIGYHDSVK,VGRGGGYFDY,nd / nd / nd,0/9
GFTNDDYAMA,FISWNSGSIGYADSVK,VGRGGGYFDY,nd / nd / nd,1/9 (3.63)
GFTFDDYAMY,GISWNSGSIGYADSVK,VFRGGGYFTY,2.94 / nd / 4.67,1/9 (4.09)
GFTFDDYACH,GISWNSGSGGYADSSK,VGRGGGYFDY,nd / nd / 5.06,4/9 (4.75)
MFTFDDYALH,GISWNSGSIGYADSVK,VGRGGGYFDY,nd / nd / nd,0/9
GFTFDIYAMH,GISWNSGSIGYADPVK,VGRGGGYFDN,4.66 / 6.08 / nd,9/9 (4.82)
GFTFDDYAMH,GISWRSGSIGSADSVK,VGRGGGYFDY,4.60 / 6.08 / 5.36,6/9 (4.74)
GFTFDDYSMH,GISWNSGSIGKADSVK,VGRGGGYFKY,nd / nd / nd,2/9 (4.18)

As a blank, each scFv also met three strains without target: over library AAYL51, 21% of these pairings were detected, typically at 4.54 and seldom below 3.26. The control count says in how many pairings with the empty strains this scFv gave a signal, with their mean in brackets.